Laboratory results taken from publication PMC5371653, “Pharmacological and Biochemical Characterization of TLQP-21 Activation of a Binding Site on CHO Cells” (Frontiers in Pharmacology, 2017).

How the values were obtained:
[1] = system: TLQP-21 binding sites on CHO cell membranes; test: TLQP-21 binding assay with [125I]-YATL-23 on crude CHO cell membranes; conditions: mean ± SEM of three independent experiments
Protocol: Binding of TLQP-21 to crude membranes (30,000 × g pellet) obtained from CHO cells was carried out using [^125I]-YATL-23 as ligand. YATL-23 was radioiodinated (specific activity, 2000 Ci/mmol) using the lactoperoxidase method ([Muccioli et al., 1998]; [Muccioli et al., 2001]) by Perkin Elmer (Milan, Italy) and purified by reverse phase high-performance liquid chromatography. For the single point binding assay, cell membranes (corresponding to 100 μg membrane protein) were incubated in triplicate at 23°C, unless otherwise noted, for 4 h under constant shaking with 0.5 nM [^125I]-YATL-23 in a final volume of 0.5 ml assay buffer (50 mM Tris, 2.5 mM EGTA, 0.002% bacitracin, 0.1% bovine serum albumin, titrated to a final pH of 7.4 with HCl). Non-specific binding was measured in parallel incubations with 1 μM unlabelled YATL-23 to displace the radioligand. Similar results were obtained using TLQP-21 to displace the radioligand. The binding reaction was terminated by the addition of ice-cold assay buffer, followed by rapid filtration through Whatman GF/B filters as previously reported ([Muccioli et al., 1998]) and the radioactivity bound to membranes was measured by a Packard auto-γ-counter. Specific binding-values were calculated as the difference obtained subtracting non-specific from total binding. Specific binding was expressed as a percentage of the total radioactivity added. […]

CHO cells = type: cell-based; conditions: data not shown
Protocol: CHO cells were plated at 20.000 cells/well into black walled, clear bottom 96-well plate (Corning, Germany) and cultured one day up to 80–90% of confluence. […] TLQP-21, TLQP-62, TLQP-8, HHPD-41, HFHH-10, and LRPS-21 were diluted in HBSS solution and injected into the wells by an automated injector system. […] Depletion of Ca^2+ from the ER leads to Ca^2+ entry from outside the cell by activation of Store-Operated Channels (SOCs).

Row | Structure (SMILES) | Kd ([1]; saturation binding, 0.03–4 nM [125I]-YATL-23, 100 μg membrane protein, pH 7.4, 4 h, 23°C, Scatchard analysis, read-out: Kd (dissociation constant) of specific binding) [nM] | in vitro biological activity in CHO cells compared with TLQP-21 (CHO cells) | IC50 ([1]; competition with 1 nM [125I]-YATL-23, 150 μg membranes/tube, competitor 10 pM to 0.1 μM, one-site binding model, read-out: IC50 of specific radioligand binding) [nM]
1 | CC(C)C[C@H](NC(=O)[C@@H](NC(=O)[C@H](C)NC(=O)[C@@H](N)Cc1ccc(O)c(I)c1)[C@@H](C)O)C(=O)N[C@@H](CCC(N)=O)C(=O)N1CCC[C@H]1C(=O)N1CCC[C@H]1C(=O)N[C@@H](C)C(=O)N[C@@H](CO)C(=O)N[C@@H](CO)C(=O)N[C@@H](CCCNC(=N)N)C(=O)N[C@@H](CCCNC(=N)N)C(=O)N[C@@H](CCCNC(=N)N)C(=O)N[C@@H](Cc1c[nH]cn1)C(=O)N[C@@H](Cc1ccccc1)C(=O)N[C@@H](Cc1c[nH]cn1)C(=O)N[C@@H](Cc1c[nH]cn1)C(=O)N[C@@H](C)C(=O)N[C@@H](CC(C)C)C(=O)N1CCC[C@H]1C(=O)N1CCC[C@H]1C(=O)N[C@@H](C)C(=O)N[C@@H](CCCNC(=N)N)C(=O)O [[^125I]-YATL-23] | 0.55 |  | 
2 | CC(C)C[C@H](NC(=O)[C@@H](NC(=O)[C@H](C)NC(=O)[C@@H](N)Cc1ccc(O)cc1)[C@@H](C)O)C(=O)N[C@@H](CCC(N)=O)C(=O)N1CCC[C@H]1C(=O)N1CCC[C@H]1C(=O)N[C@@H](C)C(=O)N[C@@H](CO)C(=O)N[C@@H](CO)C(=O)N[C@@H](CCCNC(=N)N)C(=O)N[C@@H](CCCNC(=N)N)C(=O)N[C@@H](CCCNC(=N)N)C(=O)N[C@@H](Cc1c[nH]cn1)C(=O)N[C@@H](Cc1ccccc1)C(=O)N[C@@H](Cc1c[nH]cn1)C(=O)N[C@@H](Cc1c[nH]cn1)C(=O)N[C@@H](C)C(=O)N[C@@H](CC(C)C)C(=O)N1CCC[C@H]1C(=O)N1CCC[C@H]1C(=O)N[C@@H](C)C(=O)N[C@@H](CCCNC(=N)N)C(=O)O [YATL-23] |  | same in vitro biological activity of TLQP-21 | 1.2
